The list shows a part of the results, in another mix than the full data. Active and inactive are the calls of the source.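 Rule for the calls: active = mean replicate percent of control at or below 100 minus about 85%, very high polarization wells dropped (limit read from the data); inactive = the rest.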
biological target: Guanine nucleotide-binding protein G(i) subunit alpha-3 (Rattus norvegicus) (UniProt P08753); assay: inhibitors of GIV peptide binding to Galpha-i3, primary screen, biochemical, fluorescence polarization, FITC-GIV GBA peptide, rat Galphai3 (AID 1224905); details: 90 min, hits give low values, scaled: aluminum fluoride 0%, vehicle 100%;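 note: lower values mean more displacement of the GIV peptide from Galpha-i3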

Amino acid sequences for entries named in this document (tags omitted).
UniProt P08753, whole entry: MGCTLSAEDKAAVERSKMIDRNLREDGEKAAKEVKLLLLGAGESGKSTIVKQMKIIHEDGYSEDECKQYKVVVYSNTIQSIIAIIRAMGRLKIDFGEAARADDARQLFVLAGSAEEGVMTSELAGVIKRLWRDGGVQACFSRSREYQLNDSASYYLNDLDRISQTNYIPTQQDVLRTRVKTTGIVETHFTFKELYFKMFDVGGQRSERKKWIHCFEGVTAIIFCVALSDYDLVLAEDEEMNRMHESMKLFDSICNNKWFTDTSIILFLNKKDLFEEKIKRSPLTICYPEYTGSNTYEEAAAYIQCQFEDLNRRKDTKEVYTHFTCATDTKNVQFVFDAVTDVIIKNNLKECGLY
UniProt Q3V6T2, whole entry partner: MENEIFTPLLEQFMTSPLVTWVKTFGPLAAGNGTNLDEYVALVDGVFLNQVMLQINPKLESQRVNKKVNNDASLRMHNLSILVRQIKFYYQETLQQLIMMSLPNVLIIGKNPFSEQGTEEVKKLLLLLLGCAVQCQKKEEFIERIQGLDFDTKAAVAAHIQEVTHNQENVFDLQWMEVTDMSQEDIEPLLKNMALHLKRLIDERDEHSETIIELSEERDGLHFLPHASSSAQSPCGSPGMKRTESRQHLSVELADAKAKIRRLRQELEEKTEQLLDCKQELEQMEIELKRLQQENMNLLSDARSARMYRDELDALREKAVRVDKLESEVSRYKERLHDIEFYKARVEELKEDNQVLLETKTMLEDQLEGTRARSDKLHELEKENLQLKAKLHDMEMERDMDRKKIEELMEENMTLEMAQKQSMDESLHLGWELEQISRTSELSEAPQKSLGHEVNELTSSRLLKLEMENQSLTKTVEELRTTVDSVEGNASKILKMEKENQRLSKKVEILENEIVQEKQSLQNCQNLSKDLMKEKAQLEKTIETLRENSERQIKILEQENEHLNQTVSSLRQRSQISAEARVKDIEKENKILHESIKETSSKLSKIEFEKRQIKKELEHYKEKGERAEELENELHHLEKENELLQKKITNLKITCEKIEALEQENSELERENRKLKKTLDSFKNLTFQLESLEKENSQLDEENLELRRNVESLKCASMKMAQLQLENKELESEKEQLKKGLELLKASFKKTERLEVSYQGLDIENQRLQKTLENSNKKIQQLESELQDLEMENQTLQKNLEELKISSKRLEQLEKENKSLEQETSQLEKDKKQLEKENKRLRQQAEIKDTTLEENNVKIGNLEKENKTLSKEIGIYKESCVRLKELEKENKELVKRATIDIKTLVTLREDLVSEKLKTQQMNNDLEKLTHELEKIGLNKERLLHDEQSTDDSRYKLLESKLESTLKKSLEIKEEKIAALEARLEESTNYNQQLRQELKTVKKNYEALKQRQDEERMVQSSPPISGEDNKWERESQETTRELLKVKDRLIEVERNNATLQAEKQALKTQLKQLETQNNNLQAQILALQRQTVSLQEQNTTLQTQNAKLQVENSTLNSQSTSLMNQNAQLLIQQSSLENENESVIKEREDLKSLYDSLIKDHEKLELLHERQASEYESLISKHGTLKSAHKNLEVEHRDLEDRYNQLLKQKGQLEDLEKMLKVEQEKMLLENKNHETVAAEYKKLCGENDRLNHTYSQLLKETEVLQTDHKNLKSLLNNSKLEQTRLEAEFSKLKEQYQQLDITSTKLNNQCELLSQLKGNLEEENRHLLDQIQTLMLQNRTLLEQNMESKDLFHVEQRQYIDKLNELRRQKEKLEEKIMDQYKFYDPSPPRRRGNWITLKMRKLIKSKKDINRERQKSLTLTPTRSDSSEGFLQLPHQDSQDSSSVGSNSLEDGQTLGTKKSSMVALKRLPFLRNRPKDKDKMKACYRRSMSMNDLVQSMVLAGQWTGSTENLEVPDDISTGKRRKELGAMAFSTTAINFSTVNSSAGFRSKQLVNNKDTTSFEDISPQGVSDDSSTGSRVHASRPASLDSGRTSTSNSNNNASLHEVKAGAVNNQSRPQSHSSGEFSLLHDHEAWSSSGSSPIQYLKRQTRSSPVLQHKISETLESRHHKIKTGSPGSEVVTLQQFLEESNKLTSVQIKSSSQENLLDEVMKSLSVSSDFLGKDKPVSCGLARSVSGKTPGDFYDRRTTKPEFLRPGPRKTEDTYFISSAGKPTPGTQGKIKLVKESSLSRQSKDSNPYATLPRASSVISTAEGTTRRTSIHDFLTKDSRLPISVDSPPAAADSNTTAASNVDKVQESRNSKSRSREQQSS

Row | Compound | percent of control (FP)
1 | CP(=O)(Nc1ccc(Cl)cc1)Oc1ccc(F)cc1 (stereo not drawn) | inactive: 105%
2 | CCOP(OCC)N1CCOCC1 | inactive: 110%
3 | Nc1cc(N)c2nonc2c1[N+](=O)[O-] | inactive: 97.4%
4 | CP(=O)(Nc1ccccn1)Oc1ccccc1 (stereo not drawn) | inactive: 99.8%
5 | CC(=O)OC=C1c2cc([N+](=O)[O-])cc([N+](=O)[O-])c2-c2c1cc([N+](=O)[O-])cc2[N+](=O)[O-] | inactive: 104%
6 | O=CC1c2cc([N+](=O)[O-])cc([N+](=O)[O-])c2-c2c1cc([N+](=O)[O-])cc2[N+](=O)[O-] | inactive: 110%
7 | N#Cc1cc([N+](=O)[O-])cc2c1-c1c(cc([N+](=O)[O-])cc1[N+](=O)[O-])C2=O | inactive: 110%
8 | CCOP(=Nc1nc2ccccc2n2nnnc12)(OCC)OCC | inactive: 104%
9 | CN(C(=O)Cc1ccc(Cl)c(Cl)c1)[C@H]1CCCC[C@@H]1N1CCCC1 | inactive: 106%
10 | COC(=O)N(c1ccccc1)P1(=S)OCC(C)O1 (stereo not drawn) | inactive: 103%
11 | CN(C)c1cc2c(c([N+](=O)[O-])c1)-c1c(cc([N+](=O)[O-])cc1[N+](=O)[O-])C2=O | inactive: 105%
12 | CN(C(=O)Cc1ccc(Cl)c(Cl)c1)[C@@H]1CCCC[C@@H]1N1CCCC1 | inactive: 103%
13 | O=C(OC1CN2CCC1CC2)c1ccccc1 (stereo not drawn) | inactive: 102%
14 | COc1cc2c(cc1NP(C)(=O)Oc1ccccc1)oc1ccccc12 (stereo not drawn) | inactive: 102%
15 | O=C(OC1/C(=C/c2ccccc2F)N2CCC1CC2)c1ccccc1 (stereo not drawn) | inactive: 105%
16 | O=[N+]([O-])c1cc([N+](=O)[O-])c(Sc2nc3ccccc3s2)c([N+](=O)[O-])c1 | inactive: 110%
17 | O=C(OCCN1CCN(CCOCc2ccccc2)CC1)C(O)(c1ccccc1)c1ccccc1 | inactive: 99.7%
18 | O=[N+]([O-])c1cc2c(c([N+](=O)[O-])c1)-c1c(cc([N+](=O)[O-])cc1[N+](=O)[O-])C2=NO | inactive: 105%
19 | Cc1ccc(NP(=O)(/N=c2\nc(-c3ccccc3)n(-c3ccccc3)s2)Nc2ccc(C)cc2)cc1 | inactive: 118%
20 | Cc1ccccc1NP(C)(=O)Nc1ccccc1C | inactive: 97.5%
21 | C=CCN1CCN(CCOC(=O)C(O)(c2ccccc2)c2ccccc2)CC1 | inactive: 110%
22 | Nc1nonc1OCc1nonc1COc1nonc1N | inactive: 102%

Row | Compound | percent of control (FP)
23 | Cc1ccc(C(=O)OC2CN3CCC2CC3)cc1 (stereo not drawn) | inactive: 102%
24 | Cc1cc(C)cc(OP(C)(=O)Nc2ccc(OC(C)C)cc2)c1 (stereo not drawn) | inactive: 106%
25 | O=P1(Nc2ccccn2)COc2ccccc2OC1 | inactive: 98.7%
26 | Nc1nonc1-c1no[n+]([O-])c1-c1nonc1N | inactive: 105%
27 | O=C(OC1CN2CCC1CC2)c1ccc(Cl)cc1 (stereo not drawn) | inactive: 105%
28 | CN(C(=O)Cc1ccc(Cl)c(Cl)c1)[C@@H]1CC[C@]2(CCCO2)C[C@H]1N1CCCC1 | inactive: 106%
29 | Cc1cccc(OCC(=O)OC2CN3CCC2CC3)c1 (stereo not drawn) | inactive: 102%
30 | NC(=O)COC(=O)C1(O)c2ccccc2-c2ccccc21 | inactive: 98.8%
31 | O=P1(Nc2nc3ccc(Cl)cc3s2)COc2ccccc2OC1 | inactive: 99.1%
32 | CN(C(=O)Cc1ccccc1)[C@@H]1CC[C@]2(CCCO2)C[C@H]1N1CCCC1 | inactive: 101%
33 | O=C(O)C1(O)c2ccccc2-c2ccccc21 | inactive: 99.4%
34 | CC1=Nc2ccc(C(F)(F)F)cc2C1(C)C | inactive: 109%
35 | O=[N+]([O-])c1ccc(NN=C2c3cc([N+](=O)[O-])cc([N+](=O)[O-])c3-c3c2cc([N+](=O)[O-])cc3[N+](=O)[O-])cc1 | inactive: 101%
36 | Nc1nonc1OCCOc1nonc1N | inactive: 93.2%
37 | Cc1cc(C)cc(OP(C)(=O)NCc2ccccc2)c1 (stereo not drawn) | inactive: 107%
38 | O=C(OC1CN2CCC1CC2)C12CC3CC(CC(C3)C1)C2 (stereo not drawn) | inactive: 105%
39 | COP(=O)(OC)C(NC(=O)c1ccc(C)cc1)=C(Cl)Cl | inactive: 104%
40 | CCCOC=C1c2cc([N+](=O)[O-])cc([N+](=O)[O-])c2-c2c1cc([N+](=O)[O-])cc2[N+](=O)[O-] | inactive: 113%
41 | CP(=O)(Nc1ccc(Cl)cc1)Oc1ccccc1 (stereo not drawn) | inactive: 98.8%
42 | Cc1nn2c(c1[N+](=O)[O-])n1nc(C)c([N+](=O)[O-])c1n1nc(C)c([N+](=O)[O-])c21 | inactive: 110%
43 | COc1ccccc1OP(C)(=O)Nc1ccccc1 (stereo not drawn) | inactive: 101%
